Measurements reported in PubChem BioAssay AID624040 (The Scripps Research Institute Molecular Screening Center, 2012).
Only a part is listed here, and it is no random draw. Active and inactive are the calls of the source.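 The calls were made as follows: active = inhibition above a per-plate cutoff, the mean of that plate's test compounds plus 3 SD (cut at about 27% in these data); inactive = the rest.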

Chains of the proteins cited; added tags and fusions are not shown.
UniProt P08912, whole entry, looked up: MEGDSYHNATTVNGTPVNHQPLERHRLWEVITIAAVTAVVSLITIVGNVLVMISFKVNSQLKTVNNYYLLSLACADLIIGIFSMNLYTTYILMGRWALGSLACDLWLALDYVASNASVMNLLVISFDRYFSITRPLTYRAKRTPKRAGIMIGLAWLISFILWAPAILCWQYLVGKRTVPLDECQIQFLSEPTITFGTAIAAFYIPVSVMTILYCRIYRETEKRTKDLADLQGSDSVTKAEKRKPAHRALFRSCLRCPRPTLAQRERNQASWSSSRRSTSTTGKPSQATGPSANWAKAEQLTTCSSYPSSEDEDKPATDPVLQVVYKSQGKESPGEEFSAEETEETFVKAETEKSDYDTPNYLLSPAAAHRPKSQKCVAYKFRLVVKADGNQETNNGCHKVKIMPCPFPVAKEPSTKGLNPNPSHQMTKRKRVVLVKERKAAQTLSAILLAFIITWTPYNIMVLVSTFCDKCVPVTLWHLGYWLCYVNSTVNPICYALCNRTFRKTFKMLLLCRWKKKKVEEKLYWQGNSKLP

biological target: Muscarinic acetylcholine receptor M5 (Homo sapiens) (UniProt P08912); assay: human M5 muscarinic receptor antagonists, primary screen, CHO cells, Fluo-8 calcium fluorescence (AID 624040); conditions: CHO-hM5 cells, ACh EC80, at 3 µM, active compounds read high;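 also: 0% = acetylcholine EC80 with DMSO and 100% = DMSO without agonist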

**Q.** Which inhibition does the source give for `CCC1=CC2Cc3nc4ccc(Cl)cc4c(N)c3C(C1)C2` (centres undefined) here?
**A.** inactive: -7.11%

**Q.** With `O=P1(Nc2ccccn2)COc2ccccc2OC1` as the compound, how does the inhibition read?
**A.** inactive: 1.91%

**Q.** How did the inhibition turn out when `CCOP(=O)(NC(=NC(C)c1ccccc1)NC(C)c1ccccc1)OCC` (centres undefined) was run?
**A.** inactive: 2.03%

**Q.** For `CN(CCCl)Cc1cc(Cl)c(NC2=NCCN2)c(Cl)c1`, which inhibition is on record?
**A.** inactive: -3%

**Q.** With `CCOP(=O)(Nc1ccc(C)cn1)OCC` as the compound, how does the inhibition read?
**A.** inactive: 10.4%

**Q.** How did the inhibition turn out when `Clc1n[nH]nc1-c1nn[nH][15n]1` was run?
**A.** inactive: -2.92%

**Q.** For `O=P1(N(CCCl)CCCl)NCCC(C(F)(F)F)O1` (centres undefined), which inhibition is on record?
**A.** inactive: 11.7%

**Q.** `CC(C)(C)C(=O)NC(Sc1ncccn1)C(Cl)(Cl)Cl` (centres undefined) was tested. Which inhibition did it give?
**A.** inactive: -4.61%

**Q.** For `COc1ccccc1CNC(=O)COC(=O)C(O)(c1ccccc1)c1ccccc1`, which inhibition is on record?
**A.** inactive: 6.37%

**Q.** `CN(C(=O)Cc1ccc(Cl)c(Cl)c1)[C@@H]1CCCC[C@H]1N1CCCC1` was tested. Which inhibition did it give?
**A.** inactive: 1.79%

**Q.** For `CC(C)/C=N\N=C(\N)N[N+](=O)[O-]`, which inhibition is on record?
**A.** inactive: 7.47%

**Q.** With `CC1(CBr)Cn2c(nc3ccccc3c2=O)S1` (centres undefined) as the compound, how does the inhibition read?
**A.** inactive: -3.67%

**Q.** For `Cc1nn(-c2ccccc2)c2c1P(=O)(N1CCOCC1)N(C)C(c1ccccc1)=N2` (centres undefined), which inhibition is on record?
**A.** inactive: -0.91%

**Q.** `Cc1ccc(C(=O)OC2CN3CCC2CC3)cc1` (centres undefined) was tested. Which inhibition did it give?
**A.** inactive: -2.06%

**Q.** Which inhibition does the source give for `CC1CCC(C(C)C)C(OP(=O)(Nc2ccccn2)c2ccccc2)C1` (centres undefined) here?
**A.** inactive: -7%

**Q.** Which inhibition does the source give for `O=C(/C=C/c1ccccc1)OC1CN2CCC1CC2` (centres undefined) here?
**A.** inactive: 6.18%

**Q.** Which inhibition does the source give for `CCCC1OP(=O)(Nc2ccccc2)OCC1CC` (centres undefined) here?
**A.** inactive: 4.16%

**Q.** For `Cc1ccc(S(=O)(=O)N(CCCN)CCCc2c(C)nc(N)[nH]c2=O)cc1`, which inhibition is on record?
**A.** inactive: -6.71%

**Q.** `O=P1(Nc2ncccn2)COc2ccccc2OC1` was tested. Which inhibition did it give?
**A.** inactive: 0.25%

**Q.** `Nc1cccc([As](=O)(O)c2ccccc2)c1` was tested. Which inhibition did it give?
**A.** inactive: 15.5%

**Q.** How did the inhibition turn out when `NS(=O)(=O)c1cccc(NC(=O)COC(=O)C(O)(c2ccccc2)c2ccccc2)c1` was run?
**A.** inactive: 15.4%

**Q.** Which inhibition does the source give for `O=P1(Nc2ccc(Br)cn2)COc2ccccc2OC1` here?
**A.** inactive: 5.45%

**Q.** Which inhibition does the source give for `O=[As](O)(c1cccs1)c1cccs1` here?
**A.** inactive: -1.9%

**Q.** Which inhibition does the source give for `Cc1ccc(OCC(=O)OC2CN3CCC2CC3)cc1` (centres undefined) here?
**A.** inactive: 17.9%

**Q.** How did the inhibition turn out when `CCOP1(=S)c2c(C)nn(CCC#N)c2N=C(c2ccccc2F)N1C` (centres undefined) was run?
**A.** inactive: 19.7%

**Q.** How did the inhibition turn out when `O=P(Nc1nccs1)(c1ccccc1)c1nc2ccccc2s1` (centres undefined) was run?
**A.** inactive: -1.15%

**Q.** How did the inhibition turn out when `O=P(Nc1nccs1)(Oc1ccccc1)Oc1ccccc1` was run?
**A.** inactive: 0.59%

**Q.** With `CS(=O)(=O)c1cc([N+](=O)[O-])c2no[n+]([O-])c2c1` as the compound, how does the inhibition read?
**A.** inactive: 3.04%

**Q.** How did the inhibition turn out when `O=C(O)COc1ccc([As](=O)(O)O)cc1[N+](=O)[O-]` was run?
**A.** inactive: -1.36%

**Q.** With `Nc1ccccc1[As](=O)(O)c1ccccc1` as the compound, how does the inhibition read?
**A.** inactive: -0.11%

**Q.** How did the inhibition turn out when `NC(=O)Nc1ccc([As](=O)(O)O)cc1` was run?
**A.** inactive: 7.37%

**Q.** Which inhibition does the source give for `N#CCCN(C(=O)COC(=O)C(O)(c1ccccc1)c1ccccc1)c1ccc(F)cc1` here?
**A.** inactive: 1.79%

**Q.** With `CN(C(=O)Cc1ccccc1)[C@@H]1CC[C@]2(CCCO2)C[C@H]1N1CCCC1` as the compound, how does the inhibition read?
**A.** inactive: -3.55%

**Q.** Which inhibition does the source give for `CCOP1(=S)c2c(C)nn(CCC#N)c2N=C(c2ccc(F)cc2)N1C` (centres undefined) here?
**A.** inactive: 6.55%

**Q.** Which inhibition does the source give for `CN(C)C(=O)c1cc([N+](=O)[O-])cc2c1-c1c(cc([N+](=O)[O-])cc1[N+](=O)[O-])C2=O` here?
**A.** inactive: 1.15%

**Q.** `O=[N+]([O-])c1ccc2c(c1)nnn2O` was tested. Which inhibition did it give?
**A.** inactive: -4.11%

**Q.** For `CN(C(=O)Cc1ccc(Cl)c(Cl)c1)[C@H]1CC[C@@]2(CCCO2)C[C@@H]1N1CCCC1`, which inhibition is on record?
**A.** inactive: -4.91%

**Q.** How did the inhibition turn out when `O=C(OC1CN2CCC1CC2)c1ccc(Cl)cc1` (centres undefined) was run?
**A.** inactive: 17.6%

**Q.** Which inhibition does the source give for `O=[As](O)(O)c1cccnc1` here?
**A.** inactive: 0.13%

**Q.** `CS(=O)(=O)c1ccc(Cl)c(NC(=O)COC(=O)C(O)(c2ccccc2)c2ccccc2)c1` was tested. Which inhibition did it give?
**A.** inactive: -4.08%

**Q.** How did the inhibition turn out when `O=[As](O)(c1cccc(O)c1)c1cccc(O)c1` was run?
**A.** inactive: 3.72%

**Q.** Which inhibition does the source give for `Cc1cccc(OCC(=O)OC2CN3CCC2CC3)c1` (centres undefined) here?
**A.** inactive: 14.7%

**Q.** `Nc1cccc2c([As](=O)(O)O)cccc12` was tested. Which inhibition did it give?
**A.** inactive: 2.47%

**Q.** With `Cc1ccc(NCCc2c([N+](=O)[O-])cc([N+](=O)[O-])cc2[N+](=O)[O-])cc1` as the compound, how does the inhibition read?
**A.** inactive: -9.17%

**Q.** Which inhibition does the source give for `CCCOP(=S)(Nc1nc(N)cc(=O)[nH]1)OCCC` here?
**A.** inactive: 5.58%

**Q.** Which inhibition does the source give for `C[C@H]1C(=O)O[C@@H]2CCN3CC=C(COC(=O)[C@](C)(O)[C@]1(C)O)[C@H]23` here?
**A.** inactive: 1.18%

**Q.** How did the inhibition turn out when `COc1cc(C2NCCC3(OCCO3)C2(C)C)cc(OC)c1OC` (centres undefined) was run?
**A.** inactive: -4.77%

**Q.** With `CCOP(=O)(Nc1cccc2ccccc12)OCC` as the compound, how does the inhibition read?
**A.** inactive: -6.01%

**Q.** For `Cc1c2c(nc3ccccc13)SC(C(Cl)Cl)C2` (centres undefined), which inhibition is on record?
**A.** inactive: 7.78%
